The entries are a selection whose mix differs from that of the whole data set. The source made the active and inactive calls.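 Rule for the calls: active = thallium signal drop more than 5 SD beyond the mean of the no-compound control wells, seen in both duplicate plates; inactive = the rest.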
What follows are compounds tested against Inward rectifier potassium channel 2 (Mus musculus) (UniProt P35561) (assay: off-target Kir2.1 potassium flux block – cell-based, HEK293, thallium flux, selectivity assay for KCNK9 modulator project, confirmation (AID 492993;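 note: signal is fluorescence rise after thallium addition divided by baseline fluorescence; plate controls were assay buffer only for no effect and full block by chlorpromazine control for full effect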)). Conditions: Kir2.1 cells, FluxOR thallium flux fluorescence; at 10 µM; stronger effect = higher value.

Protein sequences, listed by entry. Tags and fused reporters are not part of them. Lines headed by an entry give the natural chain unless they say otherwise; changes in a name come on top.
UniProt P35561: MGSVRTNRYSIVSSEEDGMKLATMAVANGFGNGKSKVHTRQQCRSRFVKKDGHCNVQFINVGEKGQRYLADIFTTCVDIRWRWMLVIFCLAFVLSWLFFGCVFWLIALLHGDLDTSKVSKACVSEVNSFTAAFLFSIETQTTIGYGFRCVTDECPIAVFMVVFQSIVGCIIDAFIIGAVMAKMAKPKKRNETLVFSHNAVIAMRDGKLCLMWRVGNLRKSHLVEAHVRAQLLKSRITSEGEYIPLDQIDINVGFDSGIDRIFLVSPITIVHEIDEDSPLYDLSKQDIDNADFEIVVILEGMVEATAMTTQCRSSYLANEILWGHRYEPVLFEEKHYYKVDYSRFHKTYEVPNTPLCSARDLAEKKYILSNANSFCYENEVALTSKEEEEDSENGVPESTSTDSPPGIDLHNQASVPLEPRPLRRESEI

Compound | inhibition
O=P(Nc1nccs1)(c1ccccc1)c1nc2ccccc2s1 (stereo unspecified) | inactive: 0%
